Tested on: P. falciparum Cam3.II lines
Assay: Isobologram analyses (fixed-ratio drug combinations)
Assay type: cell-based, Plasmodium falciparum
Settings: combined with WLL; Trophozoites, 3 hr exposure; Cam3.II K13C580Y
Description: Assays were performed with fixed ratios of drug combinations (1:0, 4:1, 2:1, 1:1, 1:2, 1:4, and 0:1), tested in duplicate. Combinations were prepared from 16×IC50 drug stocks and tested across a range of two-fold dilutions. Assays were conducted with asynchronous cultures exposed for 72 hr or with tightly synchronized rings or trophozoites (tested at 0–3 hr or 24–27 hr post-invasion, respectively) exposed for 3 hr. Post-pulse drug washouts were conducted as described above for in vitro determination of IC50 levels. IC50 values were derived for each compound tested alone, and fractional IC50 (FIC50) values were determined for each compound tested in combination (FIC50 = […]) and plotted for each drug combination. For each combination, the mean of the sums of FIC50 values at each combination (mean ΣFIC50) was also calculated and the results illustrated using heat maps.

CN(C)c1ccc2nc3ccc(=[N+](C)C)cc-3sc2c1 [MB, methylene blue]
Mean of the sums of FIC50 (mean ΣFIC50): 1.01
